Values of other authors, collected in patent US20040186052A1, “Cytomodulating peptides and methods for treating neurological disorders” (priority 2002, published 2004).

Key:
[1] = test system: PC12 cells; conditions: cited from earlier work
[2] = test system: ALS; conditions: in vivo; cited from earlier work

| SMILES | cell death [1] | extension of survival [2] |
| --- | --- | --- |
| O=[N+]([O-])c1ccc(-c2nc(-c3ccncc3)c(-c3ccc(F)cc3)[nH]2)cc1 [PD169316] | inhibited |  |
| Nc1nc2ccc(OC(F)(F)F)cc2s1 [riluzole] |  | less than a year |
